DT40 TDP1 CPT – DT40-hTDP1 cell growth loss with CPT. chicken DT40 Tdp1-/-;hTDP1 cells + 20 nM CPT, ATP luminescence, 48 h. 420,000 compounds, 12% hits. Potency, µM (series often up to 46.2 µM), without a hit: top-dose activity change, negative = growth inhibition, usual class: inhibitors. AID 686979; further: potency means the concentration at half of the fitted maximal effect; on the % scale 0 is the no-effect control and ±100 the full control effect; nearly all actives have a fitted effect of over 55% in size
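Chicken DT40 Tdp1-/- cells stably complemented with human TDP1 were seeded at 400 cells/well in medium containing 20 nM camptothecin, exposed to pin-transferred compounds, and grown at 37 °C for at least 48 hr. Viability was read as ATP luminescence.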
DT40 TDP1 no CPT – qHTS for Inhibitors of human tyrosyl-DNA phosphodiesterase 1 (TDP1): qHTS in cells in absence of CPT; DT40 Tdp1-/- hTDP1 cells, no CPT, ATP luminescence, 48 h; Potency, µM (top dose mostly 46.2 µM), for the others: at the highest dose activity change, negative = growth inhibition, hits mostly inhibitors; 420,000 compounds, 15% hits; AID 686978, 2013; further: potency means the concentration at half of the fitted maximal effect; on the % scale 0 is the no-effect control and ±100 the full control effect; nearly all actives have a fitted effect of over 55% in size
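Growth kinetics read by CellTiter-Glo luminescence after ≥48 hr at 37 °C. Cells: DT40 Tdp1-/- stably carrying human TDP1, 400 per well, compound exposure in the absence of CPT (DMSO vehicle).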
TDP1 block – inhibitors of human tyrosyl-DNA phosphodiesterase TDP1; Q9NUW8; recombinant TDP1, AlphaScreen DNA substrate cleavage; Potency, µM (series often up to 130 µM), inactives show at the highest dose activity change, negative = inhibition, actives largely listed as inhibitors; 350,000 compounds, 0.28% hits; AID 485290; further: potency means the concentration at half of the fitted maximal effect; on the % scale 0 is the no-effect control and ±100 the full control effect; nearly all actives have a fitted effect of over 40% in size
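Tdp1 1 nM final; 15 min RT w/ cpd; substrate 15 nM, 5 min; beads 10 ug/ml, 10 min; AlphaScreen read. Neg ctrl: no enzyme.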
uPA generation – inhibitors of cell surface uPA generation; cell surface uPA generation assay, qHTS; Potency, µM (doses to about 38.3 µM), for inactives: at the highest dose activity change, negative = inhibition, actives largely listed as inhibitors; 330,000 compounds, 0.31% hits; AID 540303; active means well fitted inhibition curve with a large enough effect; inconclusive means small, poorly fitted or top-dose-only effect; inactive means no such curve, though single readings can be large or run the other way; tested in mouse RAW 264.7 cells; further: potency means the concentration at half of the fitted maximal effect; on the % scale 0 is the no-effect control and ±100 the full control effect; nearly all actives have a fitted effect of over 55% in size
miR-21 reporter – raises the signal of a miR-21 reporter; Potency, µM (doses to about 38.3 µM), inactives show top-dose reporter change, positive = more light; HeLa miR-21 FLuc reporter, luciferase, 48 h; AID 2288; 340,000 tested, under 10 active; active = well fitted rising curve with a large enough effect; inconclusive = small, poorly fitted or top-dose-only effect; inactive = no such curve, though single readings can be large or run the other way;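 further: % of control where 0% means no effect; miR-21 action dims this reporter so a rising signal means less miR-21 action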
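HeLa cells stably expressing CMV-driven firefly luciferase with a downstream miR-21 binding sequence, endogenously expressing miR-21, were treated with titrations (up to about 40uM final) for 48 hours at 37 degree Celsius. Luciferase luminescence was read after lysis.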
The depositor's hits bear a star; ? = inconclusive; · = not tested or not shown; [ ] = another dose, or the depositor's remark. Rows were chosen to be rich in hits. Some 16% of all compounds tested hit in one or more screens of this group. Unless noted, the call rests on the fitted dose curve; in most records, active means well fitted curve in the direction sought with a large enough effect; inconclusive means small, poorly fitted or top-dose-only effect, or another doubt; inactive means no such curve, though single readings can be large; an effect the other way counts as inactive or inconclusive.

Abbreviations: A = DT40 TDP1 CPT; B = DT40 TDP1 no CPT; C = TDP1 block; D = uPA generation; E = miR-21 reporter
CN(CC(=O)Nc1cccc(F)c1)CC(=O)Nc1ccccc1-c1ccccc1
  A = ?	B = ?	C = -0.5%	D = -11.7%	E = ·
CN(CC(=O)NCC(=O)Nc1ccc(F)cc1)CC(=O)Nc1ccc(Cl)c(C(F)(F)F)c1
  A = -26.7%	B = -18.6%	C = ·	D = 1.7%	E = ·
CN(CC(=O)Nc1cccc(F)c1)CC(=O)NC(c1ccccc1)c1ccccc1
  A = 23.1µM*	B = ?	C = -0.6%	D = -0.5%	E = ·
CN(CC(=O)Nc1cccc(C(F)(F)F)c1)Cc1ccccc1
  A = ?	B = 9.2µM*	C = 7.4%	D = ·	E = -4.4%
CCOc1ccc(NC(=O)CN(C)C(=O)c2ccccc2SCC(=O)N2CCCC2)cc1OCC
  A = -2.6%	B = -6.5%	C = 1.7%	D = -9.7%	E = ·
CN(CC(=O)NCc1ccc(F)cc1)CC(=O)Nc1ccc(Cl)c(C(F)(F)F)c1
  A = 23.1µM*	B = 20.6µM*	C = -3.3%	D = ?	E = 22.1%
CN(CC(=O)Nc1cccc(S(=O)(=O)N(C)C)c1)Cc1ccccc1
  A = -28.3%	B = ?	C = 7.3%[0.0935 µM]	D = 3.0%	E = -22.6%
CN(CC(=O)Nc1ccc(Cl)c(C(F)(F)F)c1)C(=O)c1ccccc1SCC(=O)N1CCCC1
  A = 18.4µM*	B = ?	C = ·	D = -21.3%	E = ·
O=C(O)CN1C(=O)SC(Nc2ccc(C(=O)O)cc2)C1=O (centres undefined)
  A = -7.8%	B = -12.3%	C = -3.5%	D = -4.3%	E = 1.3%
COC(=O)c1ccc(NC(=O)c2ccc(C)cc2)o1
  A = -29.7%	B = ?	C = 1.0%	D = -5.8%	E = -16.3%
Cc1c(-c2ccccc2)nc2ccccc2c1C(=O)Nc1ccncc1
  A = -15.1%	B = -10.5%	C = 2.3%	D = 4.4%	E = 3.4%
CC(NC(=O)CN(C)CC(=O)Nc1ccc(Cl)c(C(F)(F)F)c1)c1ccccc1 (centres undefined)
  A = 20.6µM*	B = 23.1µM*	C = ·	D = -4.9%	E = ·
CC1CC1C(=O)N(C)CC(=O)Nc1ccc(Cl)c(C(F)(F)F)c1 (centres undefined)
  A = ?	B = ?	C = ·	D = -5.5%	E = ·
CCOc1cc(NC(=O)C2CC2)c(OCC)cc1NC(=O)CCn1nnc2ccccc21
  A = -29.3%	B = -9.8%	C = 4.3%	D = 2.2%	E = 0.4%
CN1c2ccsc2C(O)=C(C(=S)Nc2ccccc2)S1(=O)=O
  A = 14.6µM*	B = 23.1µM*	C = -2.0%	D = 1.3%	E = 0.5%
Cc1ccccc1NC(=S)C1=C(O)c2sccc2N(C)S1(=O)=O
  A = ?	B = ?	C = 8.1%	D = -0.4%	E = -10.3%
CN1CCN(CCCNC(=S)Nc2ccc(F)c(Cl)c2)CC1
  A = 0.4%	B = 1.0%	C = 4.6%	D = -1.3%	E = 3.6%
CN1c2ccccc2C(O)=C(C(=S)Nc2ccc(F)c(Cl)c2)S1(=O)=O
  A = ?	B = 18.4µM*	C = -2.8%	D = -2.1%	E = 18.8%
Cc1ccc(NC(=S)C2=C(O)c3ccccc3N(C)S2(=O)=O)cc1
  A = ?	B = 20.6µM*	C = -5.6%	D = -3.0%	E = 0.5%
CN1c2ccccc2C(O)=C(C(=O)Nc2ccccc2)S1(=O)=O
  A = ?	B = ?	C = 0.0%	D = 3.7%	E = -0.3%
CN1c2ccccc2C(O)=C(C(=S)Nc2ccccc2)S1(=O)=O
  A = 18.4µM*	B = 25.9µM*	C = -6.3%	D = -2.4%	E = -3.6%
O=C(/C=C/c1ccc(Cl)cc1Cl)N1CCc2ccccc21
  A = -18.9%	B = ?	C = -2.6%	D = -12.0%	E = -83.3%
CC1CCCN(C(=O)Cn2nnc(-c3ccccc3F)n2)C1 (centres undefined)
  A = -12.9%	B = 25.9%	C = ·	D = 5.4%	E = -51.7%
CCCC(=O)Nc1ccc(NC(=O)CCc2ccccc2)cn1
  A = 16.4µM*	B = 16.4µM*	C = 2.1%	D = -5.6%	E = -11.1%
c1ccc(-c2csc3ncnc(NCCCN4CCOCC4)c23)cc1
  A = 11.6µM*	B = 13µM*	C = -2.2%	D = -5.8%	E = 13.2%
c1csc(-c2csc3ncnc(NCCCN4CCOCC4)c23)c1
  A = 16.4µM*	B = 13µM*	C = 3.3%	D = ·	E = 17.7%
O=c1c2c(-c3ccccc3)csc2nc2c3ccccc3c(NCCN3CCOCC3)nn12
  A = 8.2µM*	B = 5.17µM*	C = 7.1%	D = -6.5%	E = 9.8%
O=c1c2ccccc2nc2c3ccccc3c(NCCN3CCOCC3)nn12
  A = ·	B = ·	C = 11.7%	D = ·	E = 18.4%
c1ccc(-c2csc3ncnc(NCC4COc5ccccc5O4)c23)cc1 (centres undefined)
  A = 0.731µM*	B = 0.92µM*	C = -1.9%	D = -9.9%	E = ?
CCOc1ccc2c(c1)c(N=O)c(O)n2C
  A = 3.8%	B = ?	C = 2.7%	D = -4.2%	E = -1.1%
COc1cccc(NC(=O)CN(C)C(=O)c2cc3c(s2)CCC3)c1
  A = 8.0%	B = -1.7%	C = ·	D = 3.1%	E = ·
CC(=O)c1ccc(OC(=O)/C=C/c2ccccc2)cc1
  A = -0.3%	B = -18.4%	C = ·	D = 24.6%	E = -4.2%
CC(=O)N1CC=CC1(C)C(=O)NCC1CC1 (centres undefined)
  A = ·	B = ·	C = -3.9%	D = ·	E = ·
O=C(Nc1nc2cc3c(cc2s1)OCCO3)c1ccco1
  A = 11.6µM*	B = 16.4µM*	C = 2.6%	D = -13.6%	E = ?
CC1(C)CC(=O)c2sc(NC(=O)c3ccco3)nc2C1
  A = -10.5%	B = -24.3%	C = -2.0%	D = 10µM*	E = -12.6%
O=C(Nc1nc2cc3c(cc2s1)OCCO3)c1ccncc1
  A = ?	B = 23.1µM*	C = 5.1%	D = -10.4%	E = 1.6%
COc1ccc(-n2c(C(C)(C)C)csc2=Nc2c(C)n(C)n(-c3ccccc3)c2=O)cc1
  A = -3.3%	B = -19.9%	C = 0.0%	D = 0.7%	E = -6.8%
CN1CCN(C2=Nc3ccccc3Cc3ccccc32)CC1
  A = -20.6%	B = ?	C = ·	D = ·	E = ·
O=C1CC(c2ccccc2)Cc2[nH]c(=O)c(-c3nc(-c4ccc(F)cc4)cs3)cc21 (centres undefined)
  A = 5.17µM*	B = 3.26µM*	C = -5.5%	D = ·	E = 20.9%
O=C1CC(c2ccccc2)Cc2[nH]c(=O)c(-c3nc(-c4ccc(Cl)cc4)cs3)cc21 (centres undefined)
  A = 0.581µM*	B = 0.651µM*	C = -1.8%	D = ·	E = 19.4%
COc1ccc(C2CC(=O)c3cc(-c4nc(-c5cccc([N+](=O)[O-])c5)cs4)c(=O)n(-c4ccc(OC)cc4)c3C2)cc1 (centres undefined)
  A = -2.3%	B = 6.7%	C = -0.9%	D = ·	E = 0.1%
COc1ccc(C2CC(=O)c3cc(-c4nc(-c5ccc(Cl)cc5)cs4)c(=O)[nH]c3C2)cc1 (centres undefined)
  A = -5.7%	B = -27.4%	C = -5.5%	D = ·	E = -3.4%
COc1ccc(C2CC(=O)c3cc(-c4nc(-c5cccc(Cl)c5)cs4)c(=O)[nH]c3C2)cc1OC (centres undefined)
  A = ?	B = 9.2µM*	C = -4.5%	D = ·	E = -5.6%
O=C1CC(c2ccccc2)Cc2[nH]c(=O)c(-c3nc(-c4ccc(Cl)c(Cl)c4)cs3)cc21 (centres undefined)
  A = 3.26µM*	B = 2.31µM*	C = -3.6%	D = ·	E = -0.5%
O=C(NCC1CCOCC1)c1cccc2c(-c3cccnc3)coc12
  A = -28.9%	B = ?	C = ·	D = ·	E = ·
O=C(Nc1ccccc1)c1cccc2c(-c3cccnc3)coc12
  A = 20.6µM*	B = 14.6µM*	C = ·	D = ·	E = ·
COc1ccc(NC(=O)c2cccc3c(-c4cccnc4)coc23)cc1
  A = 11.6µM*	B = 20.6µM*	C = ·	D = ·	E = ·
CC(C)CNC(=O)c1cccc2c(-c3cccnc3)coc12
  A = -20.1%	B = -17.9%	C = ·	D = ·	E = ·

Fetched one by one from the entries so far, three records:
Abbreviations: A = DT40 TDP1 CPT; B = DT40 TDP1 no CPT; C = TDP1 block; D = uPA generation; E = miR-21 reporter
COc1ccc(C2CC(=O)c3cc(-c4nc(-c5ccc(Cl)cc5)cs4)c(=O)[nH]c3C2)cc1 (centres undefined)
  A = -5.7%	B = -27.4%	C = -5.5%	D = ·	E = -3.4%
CC(C)CNC(=O)c1cccc2c(-c3cccnc3)coc12
  A = -20.1%	B = -17.9%	C = ·	D = ·	E = ·
COc1ccc(C2CC(=O)c3cc(-c4nc(-c5cccc(Cl)c5)cs4)c(=O)[nH]c3C2)cc1OC (centres undefined)
  A = ?	B = 9.2µM*	C = -4.5%	D = ·	E = -5.6%

Screens from PubChem.
